Assay results from patent US20050064383A1, “Methods and apparatus for producing gender enriched sperm” (priority 2000, published 2005).

Experiment: Buffer solubility by HPLC
Conditions: TES Buffer pH 6.98; maximum measurable 90 micromolar
Method: One microliter (μL) of the stock solution was then added to 110 μL of aqueous buffer solution placed in an HPLC (high performance liquid chromatography) vial and mixed by inverting a number of times. The samples were allowed to stand for 30 minutes and then centrifuged for 30 minutes. The centrifugation is required to deposit suspended material that could interfere with the analysis to the side of the vial. The solutions were then analyzed by HPLC by sampling the solution without touching the vial bottom or sides. Shown below are the measured quantities remaining in solution in the various buffers.

Substance: [2-[(3,5-dimethyl-1H-pyrrol-2-yl-kN)methylene]-N(N-(N-(8-(p-[5-[5-(4-methyl-1-piperazinyl)-2-benzimidazolyl]-2-benzimidazolyl]phenoxy)octan-1-oyl)-3-aminopropyl)hexan-6-amide-2H-pyrrole-5-propanamidato-kN1]difluoroboron [Bisbenzimide-BODIPY conjugate]
- quantity remaining in solution (solubility): 38 µM
